Experimental data reported in PubChem BioAssay AID629 (Emory University Molecular Libraries Screening Center, 2007).
This is a selection; strong and weak results do not stand in their true shares. Activity calls are given as the source filed them. Rule as the data show it: active = inhibition above about 50%; inactive = the rest.

Sequences of proteins named here, by UniProt entry; tags and fusion partners are left off.
UniProt P03372, whole entry: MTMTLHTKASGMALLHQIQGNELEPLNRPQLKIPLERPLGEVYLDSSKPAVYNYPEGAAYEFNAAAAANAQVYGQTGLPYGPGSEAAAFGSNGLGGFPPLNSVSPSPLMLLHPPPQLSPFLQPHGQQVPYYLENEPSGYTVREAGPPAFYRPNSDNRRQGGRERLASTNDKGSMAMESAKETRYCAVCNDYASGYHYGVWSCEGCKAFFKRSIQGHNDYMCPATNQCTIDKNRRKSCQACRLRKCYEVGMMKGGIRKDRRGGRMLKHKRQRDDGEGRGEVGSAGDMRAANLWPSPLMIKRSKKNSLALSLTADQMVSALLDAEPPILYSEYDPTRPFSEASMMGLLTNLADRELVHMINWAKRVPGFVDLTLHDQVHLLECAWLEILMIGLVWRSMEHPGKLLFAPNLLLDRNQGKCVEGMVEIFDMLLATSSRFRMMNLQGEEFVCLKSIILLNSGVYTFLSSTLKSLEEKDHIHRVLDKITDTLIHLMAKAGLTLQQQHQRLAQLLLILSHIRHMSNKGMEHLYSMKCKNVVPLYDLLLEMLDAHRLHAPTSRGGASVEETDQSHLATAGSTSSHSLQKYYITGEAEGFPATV

Molecular target: Estrogen receptor (Homo sapiens) (UniProt P03372)
Assay: blockers of SRC-1 peptide recruitment to ERα – biochemical, TR-FRET, ERα LBD, estradiol-bound, primary screen (AID 629);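 also: 0% = receptor plus peptide control and 100% = peptide only without receptor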
Conditions: TR-FRET ER-alpha LBD / SRC-1 peptide, at 25.6 µM, active compounds read high

Q: Which inhibition does the source give for `CCOc1ncccc1C(=O)NCC1(N2CCOCC2)CCCCC1` here?
A: Its inhibition is inactive: -6.25%.

Q: `CCC(CO)(C(=O)OC1CN2CCC1CC2)c1ccccc1` (centres undefined) was tested. Which inhibition did it give?
A: Its inhibition is inactive: -13.7%.

Q: `Fc1ccccc1NC1CCN(Cc2ccccc2)CC1` was tested. Which inhibition did it give?
A: Its inhibition is inactive: -4.9%.

Q: For `c1ccc(CN2CCC(Nc3ccccc3)CC2)cc1`, which inhibition is on record?
A: The inhibition was inactive: 7.96%.

Q: With `N/C(=N\O)c1c(N)no[n+]1[O-]` as the compound, how does the inhibition read?
A: Its inhibition is inactive: 7.66%.

Q: With `N#CC1(Nc2ccccc2)CCN(CCc2ccccc2)CC1` as the compound, how does the inhibition read?
A: Its inhibition is inactive: -13.4%.

Q: `O=C(NCC1(N2CCOCC2)CCCCC1)c1cc(=O)[nH]c2ccccc12` was tested. Which inhibition did it give?
A: The inhibition was inactive: 20.5%.

Q: Which inhibition does the source give for `O=C(OC1CN2CCC1CC2)C1c2ccccc2Oc2ccccc21` (centres undefined) here?
A: The inhibition was inactive: 6.32%.

Q: Which inhibition does the source give for `O=C(NCC1(N2CCOCC2)CCCCC1)c1cc2ccccc2o1` here?
A: Its inhibition is inactive: -7.57%.
